One molecule from PubChem BioAssay AID2778 (National Center for Advancing Translational Sciences (NCATS), 2010) can be followed below.

The chains behind the UniProt entries cited, without tags or fusion partners.
UniProt O00255, whole entry, looked up: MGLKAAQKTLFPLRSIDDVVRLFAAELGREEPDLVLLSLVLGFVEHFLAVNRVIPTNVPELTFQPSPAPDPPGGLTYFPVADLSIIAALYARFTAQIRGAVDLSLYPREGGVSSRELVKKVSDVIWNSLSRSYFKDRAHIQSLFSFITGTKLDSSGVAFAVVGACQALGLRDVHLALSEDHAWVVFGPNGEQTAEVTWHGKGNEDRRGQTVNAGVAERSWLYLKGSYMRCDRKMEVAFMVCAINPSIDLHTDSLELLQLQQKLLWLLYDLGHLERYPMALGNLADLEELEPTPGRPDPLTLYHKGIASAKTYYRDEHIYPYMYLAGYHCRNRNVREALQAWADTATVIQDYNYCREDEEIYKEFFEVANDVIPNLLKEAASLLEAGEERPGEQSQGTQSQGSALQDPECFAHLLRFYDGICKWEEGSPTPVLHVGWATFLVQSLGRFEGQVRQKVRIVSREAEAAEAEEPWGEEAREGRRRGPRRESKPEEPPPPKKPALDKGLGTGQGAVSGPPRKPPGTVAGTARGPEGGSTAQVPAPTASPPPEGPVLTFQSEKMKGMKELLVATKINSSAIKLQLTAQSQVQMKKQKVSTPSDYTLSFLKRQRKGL

This assay concerns the target Menin (Homo sapiens) (UniProt O00255). Put plainly: Confirmation of Inhibitors Targeting the Menin-MLL Interaction in MLL Related Leukemias: Confirmation in an HTRF (commercial TR-FRET) Assay using His-tagged menin and biotin-labeled MLL peptide. As to conditions: His-menin / biotin-MLL peptide binding; at 126 µM (top of the series).

The entries are a selection whose mix differs from that of the whole data set. Results filed as inconclusive are left out. Active and inactive are the calls of the source. The call rests on the fitted dose curve; in most records, active means well fitted inhibition curve with a large enough effect; inconclusive means small, poorly fitted or top-dose-only effect, or effect the other way; inactive means flat fitted curve, though single readings scatter.
On the % scale 0 is the no-effect control and ±100 the full control effect.

For `O=[As](O)(c1cccs1)c1cccs1`, the activity change, negative = inhibition is inactive: 4.13%.
